Our source for the IC50 values is ChEMBL document CHEMBL2346591, “Oxadiazole-isopropylamides as potent and noncovalent proteasome inhibitors” (J Med Chem, 2013).

pIC50: −log10 of the molar value.

A short description of the test: Inhibition of chymotrypsin-like activity of rabbit 20s proteasome beta5 subunit using Suc-Leu-Leu-Val-Tyr-AMC as substrate after 1 hr by fluorescence assay. Set-up: species or system Oryctolagus cuniculus. The method in brief: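 Purified rabbit 20S proteasome at 1 nM, with or without compound, incubated 1 h at 37 °C in 50 mM Tris-HCl pH 7.6 with fluorogenic AMC peptide: 20 µM […] (CT-L), Bz-Val-Gly-Arg-AMC (T-L) or Z-Leu-Leu-Glu-AMC (PGPH-L).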

The term pIC50 denotes the IC50 on a negative log10 scale, so that one unit is a factor of ten. A high value points to a low IC50.

The compound `CCCc1ccc(OCC(=O)N(Cc2nc(-c3cncnc3)no2)C(C)C)cc1` gave a pIC50 of 7.49.
